The nature of data set [1]: Apparent permeability coefficient (Papp) (Caco-2 cell monolayer). The conditions noted are these: human. The data set is classed as ADME, cell-based.
The species entered for another data set is Homo sapiens. Briefly: Cellular permeability (Pc) (Caco-2 cell monolayer). The data set is classed as ADME.

Only a part of the results on these compounds is given; other tests are left out.

For orientation: Papp means the rate of passage across a membrane or cell layer, normalised by area and donor concentration. Turning to `CCC(=O)N(c1ccccc1)C1(COC)CCN(CCn2nnn(CC)c2=O)CC1`, the apparent permeability (Papp) in data set [1] was 83 ×10⁻⁶ cm/s. This compound returned a Pc in the data set filed under Homo sapiens of 310 ×10⁻⁶ cm/s.
